Earlier results, collected in patent publication US20220096505A1, “PHARMACEUTICAL COMPOSITION, METHODS FOR TREATING AND USES THEREOF” (Boehringer Ingelheim International GmbH, priority 2011, published 2022).

Tested on: SGLT
Details: leading to a decrease in blood glucose concentrations and to glucosuria; cited from earlier work

Compound: O=C(CCc1ccc(O)cc1)c1c(O)cc(O)cc1O[C@@H]1O[C@H](CO)[C@@H](O)[C@H](O)[C@H]1O [phlorizin]
- effect on reuptake of glucose from the glomerular filtrate into the blood: partially inhibit the reuptake of glucose
